Results as given in ChEMBL document CHEMBL5154845, “Dual-acting antitumor agents targeting the A2A adenosine receptor and histone deacetylases: Design and synthesis of 4-(furan-2-yl)-1H-pyrazolo[3,4-d]pyrimidin-6-amine derivatives” (Eur J Med Chem, 2022).

Biological target: Adenosine receptor A2a (Homo sapiens, UniProt P29274)
Test: Displacement of [3H][…] from human A2AAR incubated for 60 mins by scintillation counter analysis

Ki: 0.79 nM
SMILES: Cc1cc(Cn2nnc3c(-c4ccco4)nc(N)nc32)ccc1N [VIPADENANT]
